Membrane permeability of cyclic peptides

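Lipid, pH, incubation time, direction and concentration are not recorded in the data file. The list need not hold all peptides of the study. Peptides that the database sets to -10, its floor, are left out.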

PAMPA is the parallel artificial membrane permeability assay, which has no cells and reads passive diffusion. RRCK values come from monolayers of low-efflux MDCK cells. P is given in units of 10^-6 cm/s (from log10 values with two decimals); larger means faster passage.

Listed for CCC[C@@H]1C(=O)N(C)[C@@H](CC2CCCCC2)C(=O)N[C@@H](CC2CCCCC2)C(=O)N2CCC[C@@H]2C(=O)N(C)[C@@H](Cc2ccc(O)cc2)C(=O)N[C@@H](CC(C)C)C(=O)N1C: PAMPA 0.066 × 10^-6 cm/s and RRCK 0.6 × 10^-6 cm/s. CC(C)C[C@@H]1NC(=O)[C@H](Cc2ccccc2)N(C)C(=O)[C@H]2CCCN2C(=O)[C@H](C)NC(=O)[C@H](CC(C)C)N(C)C(=O)[C@@H](CC(C)C)N(C)C1=O has PAMPA 10 × 10^-6 cm/s and RRCK 26 × 10^-6 cm/s. The entry for CC(C)C[C@@H]1NC(=O)[C@H](Cc2ccccc2)NC(=O)[C@H]2CCCN2C(=O)[C@H](CC2CCCCC2)NC(=O)[C@H](CC2CCCCC2)NC(=O)[C@@H](C)NC1=O lists PAMPA 4.6 × 10^-6 cm/s and RRCK 4.1 × 10^-6 cm/s. The entry for CC(C)C[C@@H]1NC(=O)[C@H](Cc2ccccc2)NC(=O)[C@H]2CCCN2C(=O)[C@H](CC(C)C)NC(=O)[C@H](CC(C)C)NC(=O)[C@@H](CC(C)C)NC1=O lists PAMPA 10 × 10^-6 cm/s and RRCK 8.7 × 10^-6 cm/s. CCC[C@@H]1C(=O)N(C)[C@@H](C)C(=O)N[C@@H](CC(C)C)C(=O)N2CCC[C@@H]2C(=O)N(C)[C@@H](C)C(=O)N[C@@H](CC(C)C)C(=O)N1C is reported with PAMPA 6.2 × 10^-6 cm/s and RRCK 14 × 10^-6 cm/s. CC(C)C[C@@H]1NC(=O)[C@H](Cc2ccccc2)N(C)C(=O)[C@H]2CCCN2C(=O)[C@H](CC(C)C)NC(=O)[C@H](C)N(C)C(=O)[C@@H](CC(C)C)N(C)C1=O is reported with PAMPA 6.9 × 10^-6 cm/s and RRCK 23 × 10^-6 cm/s.

Values of Naylor et al. 2018, doi:10.1021/acs.jmedchem.8b01259, as listed in CycPeptMPDB.